Antibody variant affinities, Ab-14 light chain, assay 1

Values reported by Engelhart et al. 2022, doi:10.1038/s41597-022-01779-4 (FLAb copy).

The target is the same throughout: PDVDLGDISGINAS, from the HR2 region of SARS-CoV-2 spike.

Ab-14 is the parent antibody, in scFv form: VH, then three GGGGS repeats, then VL. The heavy chain is unchanged in all variants.
VH: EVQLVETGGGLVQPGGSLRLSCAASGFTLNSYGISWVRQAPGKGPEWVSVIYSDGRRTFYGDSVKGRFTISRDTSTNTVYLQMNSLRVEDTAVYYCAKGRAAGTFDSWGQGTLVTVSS
VL: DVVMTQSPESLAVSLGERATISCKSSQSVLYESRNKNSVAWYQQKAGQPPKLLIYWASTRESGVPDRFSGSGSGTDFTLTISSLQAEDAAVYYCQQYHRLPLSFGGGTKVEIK

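The parent was found by panning a naive human phage display library on the peptide. The library (AAYL50) carries one to three amino acid substitutions per variant, with no insertions or deletions. The scFvs were displayed on barcoded MATa yeast, the peptide on MATalpha yeast. The frequency of each diploid, read from paired DNA barcodes, reflects how well the two displayed proteins bind. Scores were corrected for input abundance and mapped to Kd with protein pairs of known affinity run in the same pool. There are three technical replicates.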

The parent's light chain CDRs are KSSQSVLYESRNKNSVA, WASTRES, QQYHRLPLS; each variant's own CDRs replace them letter for letter. The read-out is the apparent dissociation constant on a log10 scale (nM): the lower, the stronger. Where no diploid with the target was found in that replicate, the entry reads "nd": below detection, most likely a poor binder, though not proof of it. Parent in this assay: reference entry 0.65, copy in this library 1.68. Nonspecific signal, from three strains lacking the peptide, appeared in 18% of pairings of library AAYL50, centred on 4.19 (5% of these signals below 2.99); values are not corrected for it. For each scFv, signals with the empty controls are counted beside the result, with their mean in brackets.

CDR-L1 | CDR-L2 | CDR-L3 | replicates, log10 nM | signal with controls
VSSQSVLYESRNKNSVA | WASTRES | QQYCRLPLS | 1.40 1.80 2.21 | 0/9
KSSQSVLYESRFKNSVA | WASTRNS | QQYPRLPLS | 1.37 1.44 1.56 | 5/9 (4.78)
KSSQHVLYPSRNKNSVA | WASTRES | QQYHRLPDS | 2.70 3.16 2.30 | 2/9 (4.13)
KSSQSVLYESRNKNSVA | WATTRES | YQYHRLPLS | nd 5.39 4.09 | 1/9 (3.61)
KSSQSVLYCSRNKNSVA | WASHRES | QQYHRFPLS | nd nd nd | 0/9
KSSFSVLYESRNKNSDA | WASFRES | QQYHRLPLS | nd nd nd | 2/9 (4.79)
KSSQSLLYESRNWNSVA | WASTREQ | QQYHRLPLS | 1.70 1.82 1.95 | 1/9 (2.79)
KSSQLVFYESRNKNSVA | WASTRES | QQYHRLDLS | 3.19 2.09 2.81 | 2/9 (4.35)
KSSSSVLYESRNKNSVA | WASTRHS | QQYHRLPLS | 3.07 3.04 3.94 | 2/9 (4.00)
KSSQSVLYESRNKNSVA | WASTIES | QQNVRLPLS | 5.62 3.19 nd | 5/9 (4.47)
KSSQSVLYESHWKNSVA | WASTRES | QYYHRLPLS | nd nd nd | 1/9 (4.27)
WSSQSVWYESRNKNSVA | WASTRES | QQYHRLSLS | nd nd nd | 0/9
KSSLDVLYESRNKNSVA | WDSTRES | QQYHRLPLS | nd nd nd | 0/9
KSSQSVLWESRNKTSVA | WASTREF | QQYHRLPLS | 3.17 nd nd | 0/9
KSSQSVLYPSRNKNSVA | WASTRES | KQMHRLPLS | nd nd nd | 0/9
KSSSSVLYESRNKNSYA | WASTRES | QQYHRLPLM | 3.90 3.04 nd | 6/9 (4.25)
KSEQSILYESRNKNNVA | WASTRES | QQYHRLPLS | -0.04 0.28 -0.01 | 3/9 (5.01)
KSSQSVLQEARNKNSVA | WASTRES | QQYHRGPLS | 1.00 1.15 1.23 | 3/9 (4.00)
KSSQSVLYESRNKNSVA | WISCRFS | QQYHRLPLS | 4.55 4.52 nd | 1/9 (4.01)
KSSQSVLYWSRNKNSVA | WDSTRES | QQYHRLPLV | nd 4.46 nd | 2/9 (3.76)
KSSQSVLYESRNKNSVA | WPMTRCS | QQYHRLPLS | nd nd nd | 0/9
KSSQSDLYESSNSNSVA | WASTRES | QQYHRLPLS | 1.22 1.18 1.27 | 3/9 (3.86)
FSSVSVLYESRNKNSVA | WASTRES | QQYKRLPLS | nd nd nd | 0/9
KSKQSVLYESRNKNSVA | WASTRES | QQMHRLPLS | nd nd nd | 0/9
KSSESVLYESRNKNSVA | WASTREY | QQYHRNPLS | nd nd nd | 0/9
YSSQSVLYESRNKNSVA | WASTRES | QQYFRLPRS | nd nd nd | 0/9
KSSQSVLYESRNKNGVA | WASTRES | QQIHRLPVS | 2.70 1.29 nd | 0/9
KSSQSVLYESNNKNTVA | WASTRES | QQHHRLPLS | nd nd nd | 2/9 (3.74)
KSSQSVLDEHRNKNSVA | WATTRES | QQYHRLPLS | 0.34 0.79 0.59 | 0/9
KSSQGVLYESRMKNSVA | WASTRES | QQYGRLPLS | nd nd nd | 0/9
KNSQWVLYESRNKNSVA | WASTRES | QQYHRLFLS | 3.82 4.43 nd | 4/9 (3.72)
KSSHSVLYESRNKESVA | WASTRES | QQYHRLRLS | nd nd nd | 0/9
KSSQSVLYESRHKNSVA | WYSTRES | QKYHRLPLS | nd nd nd | 0/9
KSSQVVLYEHRNKNSVA | LASTRES | QQYHRLPLS | 2.47 3.02 2.99 | 2/9 (3.70)
KSSQAVMYESRNKNSVA | WASTRHS | QQYHRLPLS | 1.69 1.63 1.85 | 1/9 (5.44)
KSSQSVLYPSRNKCMVA | WASTRES | QQYHRLPLS | nd 4.08 nd | 0/9
KSSQSVRYESQNKISVA | WASTRES | QQYHRLPLS | 2.13 2.05 2.03 | 0/9
KSCQSVLYESRNKNSVA | WASNRES | QQYHRLPLS | nd 4.53 4.44 | 5/9 (3.71)
SSSQSVLYERRMKNSVA | WASTRES | QQYHRLPLS | 2.81 2.49 3.09 | 4/9 (4.69)

2 of these entries, quoted again:

CDR-L1 | CDR-L2 | CDR-L3 | replicates, log10 nM | signal with controls
KSSESVLYESRNKNSVA | WASTREY | QQYHRNPLS | nd nd nd | 0/9
KSSQSVLYESNNKNTVA | WASTRES | QQHHRLPLS | nd nd nd | 2/9 (3.74)